Measured values published in patent US9814761B2, “Compositions, methods and assays comprising amylin or amlyin analogs for abeta-peptide mediated disorders” (TRUSTEES OF BOSTON UNIVERSITY, priority 2012, dated 2017).

System: serum Aβ1-40 and Aβ1-42
Experiment: amylin challenge test: i.p. injection, serum Aβ1-40 and Aβ1-42 by ELISA, Tg2576 mice
Type: in vivo
Settings: injection of human CGRP instead of amylin
Protocol: TgAPP2576 mice (n=5) and control mice (n=5) were used. Intraperitoneal injection of amylin (20 mg/kg) was performed, and blood was drawn and collected at pre-injection, after injection at 5 minutes, 1 hr and 24 hrs. Serum Aβ1-40 and Aβ1-42 were measured using ELISA assay. The results of serum Aβ1-40 and Aβ1-42 for each individual mouse are shown. This experiment has been repeated twice for each mouse and similar results were obtained.
As shown at FIGS. 3A-3E, amylin injection removes Aβ from the brain into blood in APP transgenic mice. Both the Tg2576 and wild type (WT) mice were used for the amylin challenge test. FIGS. 3A-3B. Amylin (20 mg/kg) was intraperitoneally injected (i.p), and blood was drawn and collected at the time points of pre-injection (the control n=7; Tg2576 n=11), after injection 5 minutes (the control n=7; Tg2576 n=6), 1 hr (the control n=7; Tg2576 n=10) and 24 hrs (the control n=7; Tg2576 n=11). Serum Aβ1-40 and Aβ1-42 were measured by using the ELISA assays. FIGS. 3C-3E. The levels of serum Aβ1-40 and Aβ1-42 at pre-injection of amylin were treated as 1 s, and the relative fold increase after amylin injection at each time point was shown and compared with the pre-injection level by using two-way ANOVA. ***p<0.01; **p<0.05 and *p<0.10.
FIGS. 6A-6D depict amylin injection and serum Aβ in mice. […] Serum Aβ1-40 and Aβ1-42 were measured by using the ELISA assays. […]

calcitonin gene-related peptide (ACDTATCVTHRLAGLLSRSGGVVKNNFVPTNVGSKAF; Calcitonin gene-related peptide 1; UniProt P06881 83-119, looked up) [human CGRP]
surge of serum Aβ after injection: no significant surge
